These results are taken from ChEMBL document CHEMBL3817788, “Natural cholinesterase inhibitors from Myristica cinnamomea King” (Bioorg Med Chem Lett, 2016).

Sequences of proteins named here, by UniProt entry; tags and fusion partners are left off.
UniProt P81908, whole entry: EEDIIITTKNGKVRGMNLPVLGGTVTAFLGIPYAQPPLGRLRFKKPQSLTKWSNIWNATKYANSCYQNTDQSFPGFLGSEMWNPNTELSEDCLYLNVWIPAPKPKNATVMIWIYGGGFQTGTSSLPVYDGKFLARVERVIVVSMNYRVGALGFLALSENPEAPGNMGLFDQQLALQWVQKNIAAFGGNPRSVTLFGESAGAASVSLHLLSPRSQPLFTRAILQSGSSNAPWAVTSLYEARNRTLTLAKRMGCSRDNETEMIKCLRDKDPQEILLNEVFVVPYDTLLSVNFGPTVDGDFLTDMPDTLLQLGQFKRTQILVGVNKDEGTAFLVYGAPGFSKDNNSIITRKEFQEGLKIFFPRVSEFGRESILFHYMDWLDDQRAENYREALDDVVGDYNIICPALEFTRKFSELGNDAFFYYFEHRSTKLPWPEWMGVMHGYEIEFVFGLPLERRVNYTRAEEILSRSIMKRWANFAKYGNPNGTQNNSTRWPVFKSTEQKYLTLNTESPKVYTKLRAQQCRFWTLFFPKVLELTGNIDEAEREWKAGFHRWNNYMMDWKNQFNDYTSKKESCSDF

As a reminder, the IC50 is the concentration needed to halve the response being measured. A higher IC50 goes with a need for much substance.

The target in the test is Cholinesterase (Equus caballus, UniProt P81908). Briefly: Inhibition of equine serum BChE using S-butyrylthiocholine chloride as substrate incubated for 30 mins by Ellman's microplate assay. For orientation: Ellman's reagent forms a yellow product with free thiols.

Take `CNC(=O)Oc1ccc2c(c1)[C@]1(C)CCN(C)[C@@H]1N2C` [PHYSOSTIGMINE]: the IC50 was 220 nM.
